Literature values in patent US20190072541A1, “BIOMARKERS FOR TREATMENT OF ALOPECIA AREATA” (THE TRUSTEES OF COLUMBIA UNIVERSITY IN THE CITY OF NEW YORK, priority 2015, published 2019).

Test system: JAK1, JAK2, JAK3, Tyk2
Conditions: rank order of kinases; cited from earlier work

## C[C@@H]1CCN(C(=O)CC#N)C[C@@H]1N(C)c1ncnc2[nH]ccc12 [tofacitinib]
  JAK selectivity: JAK3>JAK1>>JAK2
